Source: patent US8501708B2, “Adenosine compounds and their use thereof” (Inotek Pharmaceuticals Corporation, priority 2011, dated 2013)

The chains behind the UniProt entries cited, without tags or fusion partners.
UniProt P30542, whole entry: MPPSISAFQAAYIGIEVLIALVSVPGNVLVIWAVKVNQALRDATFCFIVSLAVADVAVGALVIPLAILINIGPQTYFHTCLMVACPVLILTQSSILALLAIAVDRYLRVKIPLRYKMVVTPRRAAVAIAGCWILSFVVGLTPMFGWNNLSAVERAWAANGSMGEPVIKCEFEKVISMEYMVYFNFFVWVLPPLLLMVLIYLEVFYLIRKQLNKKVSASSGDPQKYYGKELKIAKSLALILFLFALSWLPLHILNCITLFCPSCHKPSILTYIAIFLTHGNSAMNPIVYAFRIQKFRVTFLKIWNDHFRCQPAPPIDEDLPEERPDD

biological target: human recombinant A1 adenosine receptor (Homo sapiens (Human), UniProt P30542); assay: Adenosine receptor binding, displacement of specific [3H]CCPA binding; conditions: [3H]CCPA displacement, CHO cells stably transfected with human recombinant A1 adenosine receptor
From the text: The compounds were studied in binding assays to determine their selectivity and potency to the A1, A2a and A3 adenosine receptors.

Ki	SMILES
3.53 nM	OC[C@H]1O[C@@H](n2cnc3c(N[C@@H]4CCC[C@H]4OCc4cccc(F)c4)ncnc32)[C@H](O)[C@@H]1O [Compound 19, (2R,3R,4S,5R)-2-(6-((1R,2R)-2-(3-fluorobenzyloxy)cyclopentylamino)-9H-purin-9-yl)-5-(hydroxymethyl)tetrahydrofuran-3,4-diol]
3.61 nM	OC[C@H]1O[C@@H](n2cnc3c(N[C@H]4CCC[C@@H]4OCc4cccc(F)c4)ncnc32)[C@H](O)[C@@H]1O [Compound 8, (2R,3R,4S,5R)-2-(6-((1S,2S)-2-(3-fluorobenzyloxy)cyclopentylamino)-9H-purin-9-yl)-5-(hydroxymethyl)tetrahydrofuran-3,4-diol]
6.08 nM	OC[C@H]1O[C@@H](n2cnc3c(N[C@@H]4CCC[C@H]4OCc4ccc(F)cc4)ncnc32)[C@H](O)[C@@H]1O [Compound 20, (2R,3R,4S,5R)-2-(6-((1R,2R)-2-(4-fluorobenzyloxy)cyclopentylamino)-9H-purin-9-yl)-5-(hydroxymethyl)tetrahydrofuran-3,4-diol]
